Patent publication US20260384421A1, “NOVEL COMPOUNDS THAT CAN BE USED AS THERAPEUTIC AGENTS” (published 2026)

Columns and labels:
[1] = system: mitochondrial transmembrane potential Δψm in A-549 cells; assay: mitochondrial activity assay (TMRE staining, mitochondrial transmembrane potential) on A-549 cells; conditions: A-549 cells, compounds at 10 μM, 2 h 40 min, TMRE staining, relative to DMSO = 1.0
U-87 MG cells = assay: alamarBlue proliferation assay with U-87 MG cells; conditions: read-out: Activity on U-87MG: IC50, EMEM medium, 10% FBS
A-431 cells = assay: alamarBlue proliferation assay with A-431 cells; conditions: read-out: Activity on A-431: IC50, DMEM medium, 10% FBS

SMILES | IC50 (U-87 MG cells) [nM] | IC50 (A-431 cells) [nM] | Activity: relative mitochondrial transmembrane potential Δψm [1]
O=C(c1ccc(Oc2ccc(C3CCC4(CC3)OCCO4)cc2CO)cc1)N1CC2CN(Cc3ccc(Cl)cc3)CC2C1 (centres unmarked) | – | – | Δψm ≤0.7
O=C(c1ccc(Oc2ccc(C3CCC4(CC3)OCCCO4)cc2CO)cc1)N1CCN(Cc2ccccc2)CC1 | – | – | Δψm ≤0.7
O=C(c1ccc(Oc2ccc(C3CCC4(CC3)OCCO4)cc2CO)cc1)N1CCN(Cc2ccoc2)CC1 | – | – | Δψm ≤0.7
O=C(c1ccc(Oc2ccc(C3CCC4(CC3)OCCO4)cc2CO)cc1)N1CCN(Cc2ccc(Cl)cn2)CC1 | ≤ 1000 | – | Δψm ≤0.7
COc1ccc(CN2CCN(C(=O)c3ccc(Oc4ccc(C5CCC(OC)CC5)cc4O)cn3)CC2)cc1 (centres unmarked) | – | – | Δψm ≤0.7
COC1CCC(c2ccc(Oc3ccc(C(=O)N4CCN(Cc5ccc(OCC(F)(F)F)cc5)CC4)cc3)c(CO)c2)CC1 (centres unmarked) | – | – | Δψm ≤0.7
COCC1(COC)CCC(c2ccc(Oc3ccc(C(=O)N4CCN(Cc5ccc(Cl)cc5)CC4)cc3)c(CO)c2)CC1 | – | – | Δψm ≤0.7
O=C(c1ccc(Oc2ccc(C3CCC4(CC3)OCCO4)cc2CO)cc1)N1CCN(Cc2cccs2)CC1 | – | – | Δψm ≤0.7
COCC1(COC)CCC(c2ccc(Oc3ccc(C(=O)N4CCN(Cc5ccc(OC)cc5)CC4)cc3)c(CO)c2)CC1 | – | – | Δψm ≤0.7
O=C(c1ccc(Oc2ccc(C3CCC4(CC3)OCCO4)cc2CO)cn1)N1CCN(Cc2ccccc2)CC1 | – | – | Δψm ≤0.7
O=C(c1ccc(Oc2ccc(C3CCC4(CC3)OCCO4)cc2CO)cc1)N1CCN(Cc2ccc3oc(=O)ccc3c2)CC1 | ≤ 200 | – | Δψm ≤0.7
O=C(c1ccc(Oc2ccc(C3CCC4(CCCO4)CC3)cc2CO)cc1)N1CCN(Cc2ccccc2)CC1 (centres unmarked) | – | – | Δψm ≤0.7
COC1CCC(c2ccc(Oc3ccc(C(=O)N4CCN(Cc5ccc6ccccc6c5)CC4)nc3)c(CO)c2)CC1 (centres unmarked) | – | – | Δψm ≤0.7
COC1CCC(c2ccc(Oc3ccc(C(=O)N4CCN(Cc5ccccc5)CC4)nc3)c(CO)c2)CC1 (centres unmarked) | – | – | Δψm ≤0.7
CN(C)C(=O)c1ccc(CN2CCN(C(=O)c3ccc(Oc4ccc(C5CCC6(CC5)OCCO6)cc4CO)cc3)CC2)cc1 | – | – | Δψm ≤0.7
COc1ccc(CN2CCN(C(=O)c3ccc(Oc4ccc(C5CCC(OC)CC5)cc4)cc3)CC2)cc1 (centres unmarked) | – | – | Δψm ≤0.7
COc1ccc(CN2CCN(C(=O)c3ccc(Oc4ccc(C5CCCCC5)cc4CO)cn3)CC2)cc1 | – | – | Δψm ≤0.7
O=C(c1ccc(Oc2ccc(C3CCC4(CC3)OCCO4)cc2CO)cc1)N1CCN(Cc2ccsc2)CC1 | ≤ 20000 | – | Δψm ≤0.7
COC(=O)c1ccc(CN2CCN(C(=O)c3ccc(Oc4ccc(C5CCC6(CC5)OCCO6)cc4CO)cc3)CC2)cc1 | – | – | Δψm ≤0.7
O=Cc1cc(C2CCC3(CC2)SCCCS3)ccc1Oc1ccc(C(=O)N2CCN(Cc3ccc(Cl)cc3)CC2)nc1 | – | – | Δψm ≤0.7
Cn1c(CN2CCN(C(=O)c3ccc(Oc4ccc(C5CCC6(CC5)OCCO6)cc4CO)cc3)CC2)cc2ccccc21 | ≤ 1000 | – | Δψm ≤0.7
COc1ccc(CN2CCN(C(=O)c3ccc(Oc4ccc(C5CCC6(CC5)SCCCS6)cc4CO)cn3)CC2)cc1 | – | – | Δψm ≤0.7
O=C(c1ccc(Oc2ccc(C3CCC4(CC3)SCCS4)cc2CO)cn1)N1CCN(Cc2ccc(Cl)cc2)CC1 | – | – | Δψm ≤0.7
CN(C)S(=O)(=O)c1ccc(CN2CCN(C(=O)c3ccc(Oc4ccc(C5CCC6(CC5)OCCO6)cc4CO)cc3)CC2)cc1 | – | – | Δψm ≤0.7
O=C(c1ccc(Oc2ccc(C3CCC4(CC3)OCCO4)cc2CO)cc1)N1CCN(Cc2ccccc2Cl)CC1 | – | – | Δψm ≤0.7
O=C(c1ccc(Oc2ccc(C3CCC4(CC3)OCCO4)cc2CO)cc1)N1CCN(Cc2ccc3ccccc3c2)CC1 | – | ≤ 200 | –

Second part, led by results:

IC50 (U-87 MG cells) [nM] | IC50 (A-431 cells) [nM] | SMILES | Activity: relative mitochondrial transmembrane potential Δψm [1]
≤ 1000 | – | CS(=O)(=O)c1ccc(CN2CCN(C(=O)c3ccc(Oc4ccc(C5CCC6(CC5)OCCO6)cc4CO)cc3)CC2)cc1 | Δψm ≤0.7
– | ≤ 200 | COC1CCC(c2ccc(Oc3ccc(C(=O)N4CCN(Cc5ccc(C(F)(F)F)cc5)CC4)cc3)c(CO)c2)CC1 (centres unmarked) | Δψm ≤0.7
– | ≤ 1000 | COc1cc(C2CCC(OC)CC2)ccc1Oc1ccc(C(=O)N2CCN(Cc3ccc(Cl)cc3)CC2)cc1 (centres unmarked) | Δψm ≤0.7
– | ≤ 200 | COc1ccc(CN2CCN(C(=O)c3ccc(Oc4ccc(C5CCC(OC)CC5)cc4CO)cc3)CC2)cc1 (centres unmarked) | –
≤ 200 | ≤ 200 | O=C(c1ccc(Oc2ccc(C3CCC4(CC3)OCCO4)cc2CO)cc1)N1CCN(Cc2ccc(Cl)cc2)CC1 | Δψm ≤0.7
– | ≤ 200 | COC1CCC(c2ccc(Oc3ccc(C(=O)N4CCN(Cc5ccc(C(F)(F)F)cc5)CC4)nc3)c(CO)c2)CC1 (centres unmarked) | –
≤ 1000 | ≤ 200 | COc1ccc(CN2CCN(C(=O)c3ccc(Oc4ccc(C5CCC6(CC5)OCCO6)cc4CO)cc3)CC2)cn1 | Δψm ≤0.7
≤ 5000 | – | O=C(c1ccc(Oc2ccc(C3CCC4(CC3)OCCO4)cc2CO)cc1)N1CCCN(Cc2ccc(C(F)(F)F)cc2)CC1 | Δψm ≤0.7
≤ 20000 | – | O=C(c1ccc(Oc2ccc(C3CCC4(CC3)OCCO4)cc2CO)cc1)N1CCN(Cc2ccc([N+](=O)[O-])cc2)CC1 | Δψm ≤0.7
– | ≤ 200 | COC1CCC(c2ccc(Oc3ccc(C(=O)N4CCN(Cc5ccc(OC(F)(F)F)cc5)CC4)cc3)c(CO)c2)CC1 (centres unmarked) | Δψm ≤0.7
≤ 5000 | – | O=C(c1ccc(Oc2ccc(C3CCC4(CC3)OCCO4)cc2CO)cc1)N1CCCN(Cc2ccc(Cl)cc2)CC1 | Δψm ≤0.7
– | ≤ 200 | COC1CCC(c2ccc(Oc3ccc(C(=O)N4CCN(Cc5ccc(C(F)(F)F)cn5)CC4)cc3)c(CO)c2)CC1 (centres unmarked) | Δψm ≤0.7
≤ 20000 | – | O=C(c1ccc(Oc2ccc(C3CCC4(CC3)OCCO4)cc2CO)cc1)N1CCN(Cc2ccc(C(F)(F)F)cn2)CC1 | Δψm ≤0.7
≤ 20000 | – | O=C(c1ccc(Oc2ccc(C3CCC4(CC3)OCCO4)cc2CO)cc1)N1CCN(Cc2ccc(O)cc2)CC1 | Δψm ≤0.7
≤ 20000 | ≤ 200 | O=C(c1ccc(Oc2ccc(C3CCC4(CC3)OCCO4)cc2CO)cc1)N1CCN(Cc2ccc(C(F)(F)F)nc2)CC1 | Δψm ≤0.7
– | ≤ 200 | O=C(c1ccc(Oc2ccc(C3CCCCC3)cc2CO)cc1)N1CCN(Cc2ccc(OC(F)(F)F)cc2)CC1 | –
– | ≤ 200 | COc1ccc(CN2CCN(C(=O)c3ccc(Oc4ccc(C5CCC(OC)CC5)cc4CO)cn3)CC2)cc1 (centres unmarked) | –
– | ≤ 200 | COC1CCC(c2ccc(Oc3ccc(C(=O)N4CCN(Cc5ccc(S(F)(F)(F)(F)F)cc5)CC4)cc3)c(CO)c2)CC1 (centres unmarked) | Δψm ≤0.7
– | ≤ 200 | COC1CCC(c2ccc(Oc3ccc(C(=O)N4CCN(Cc5ccc(Cl)cc5)CC4)cc3)c(CO)c2)CC1 (centres unmarked) | –
≤ 5000 | ≤ 1000 | O=C(c1ccc(Oc2ccc(C3CCC4(CCCC4)CC3)cc2CO)cc1)N1CCN(Cc2ccccc2)CC1 | Δψm ≤0.7
– | ≤ 200 | COC1CCC(c2ccc(Oc3ccc(C(=O)N4CCN(Cc5ccc(C(F)(F)F)nc5)CC4)cc3)c(CO)c2)CC1 (centres unmarked) | Δψm ≤0.7
